Consider one compound from patent US9662305B2 (REVIVE THERAPEUTICS INC., priority 2012, dated 2017).

For this experiment, the system named is ABCG2. As to conditions: 100 mg/kg/day for 7 days; data not shown.

SMILES strings stand for the structures.

Regarding `CC(C)(S)C(=O)N[C@@H](CS)C(=O)O` [bucillamine, N-(2-mercapto-2-methylpropionyl)-L-cysteine], the “ABCG2 protein in the mouse kidney (Western blot)” value is “unregulated”.
